# Binding of CDR-mutated scFvs to a peptide of the spike HR2 region

Values reported by Engelhart et al. 2022, doi:10.1038/s41597-022-01779-4 (FLAb copy).

All variants were tested on one target, the spike HR2 peptide PDVDLGDISGINAS (SARS-CoV-2).

Each scFv is VL, the linker GGGGSGGGGSGGGGS, VH, as in the parent Ab-91, and differs from it in the CDRs of the heavy chain only.
VL: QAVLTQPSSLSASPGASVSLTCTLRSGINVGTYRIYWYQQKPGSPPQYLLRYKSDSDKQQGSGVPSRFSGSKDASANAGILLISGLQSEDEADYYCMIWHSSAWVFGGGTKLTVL
VH: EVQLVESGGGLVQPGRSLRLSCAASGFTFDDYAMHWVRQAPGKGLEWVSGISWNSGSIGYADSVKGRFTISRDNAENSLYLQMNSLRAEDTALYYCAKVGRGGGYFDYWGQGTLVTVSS

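Phage display of a naive human antibody library on the peptide gave the parent. In library AAYL51, one, two or three CDR residues were substituted; doubles and triples were drawn at random. In AlphaSeq, yeast of one mating type display the scFv and yeast of the other type display the target. Pairs that bind mate more often; barcode pairs of the diploids are counted by sequencing. Each replicate has its own calibration line, from reference interactions of the BCL2 family. Mating was done three times.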

The parent's heavy chain CDRs are GFTFDDYAMH, GISWNSGSIGYADSVK, VGRGGGYFDY; each variant's own CDRs replace them letter for letter. The read-out is the apparent dissociation constant on a log10 scale (nM): the lower, the stronger. Averages over replicates are reported, and they cover detected replicates only. Where no diploid with the target was found in any replicate, the entry reads "no signal": below detection, most likely a poor binder, though not proof of it. Order: sorted from the lowest average up, undetected variants last. As a blank, each scFv also met three strains without target: over library AAYL51, 21% of these pairings were detected, typically at 4.54 and seldom below 3.26. In this assay the parent's reference entry averaged 1.86; its copy inside this library read 0.88.

GFTFDDSAMH, GISWNSGSIGYADEVK, VGRGGGYFDY: 1.45 (3 of 3 replicates).
GFTFDDYAMH, GISWNSGSIGTADSVP, VGRGGGSFDY: 3.72 (1 of 3 replicates).
HFTFEDYAMH, GISWNSGSIGYADSVK, VGRGGGSFDY: 4.03 (1 of 3 replicates).
GFTFDDYAMH, GISWNSGGIGYIDSLK, VGRGGGYFDY: 4.05 (1 of 3 replicates).
GGTFDDYQMN, GISWNSGSIGYADSVK, VGRGGGYFDY: 4.06 (1 of 3 replicates).
GFTPDDYACH, GISWNSGSIGYADSVK, VGRGGGQFDY: 4.09 (3 of 3 replicates).
GFTFDDYAMH, WISWNSGSIVYADLVK, VGRGGGYFDY: 4.10 (2 of 3 replicates).
GFTFDDYAMH, GISWVSGSIGYAASVK, VGRGGGYFDY: 4.18 (1 of 3 replicates).
GFTFDDYAMH, GISWNSGSIGYWNSVM, VGRGGGYFDY: 4.74 (3 of 3 replicates).
GFTFPDYAMC, GISWNIGSIGYADSVK, VGRGGGYFDY: 4.75 (2 of 3 replicates).
GFTFDDYAMH, VISWNSGSIGYADSVL, VGRGGGYFDH: 4.76 (3 of 3 replicates).
GFTFDDYAMH, GISWNSGDIGYADSVK, VGRGWGYFDY: 4.95 (3 of 3 replicates).
GFTFDDYAMH, GPSWNSGSIGYADSVK, VGMGGGIFDY: 5.07 (1 of 3 replicates).
GFTFDDLAMH, GIMWNSGSIGYADSVK, VGRGGGIFDY: 5.11 (2 of 3 replicates).
GFTFDDYAMH, GISWNSGSIGYADSVK, VIRGGGEFDY: 5.18 (3 of 3 replicates).
GFTFDDRAMH, GISWNSGSIGYADHVK, VGRGAGYFDY: 5.56 (3 of 3 replicates).
GFGFDDYAMH, GISNNSGSIGVADSVK, VGRGGGYFDY: 5.77 (2 of 3 replicates).
GFYFDDYAMD, GISWNSCSIGYADSVK, VGRGGGYFDY: 6.20 (2 of 3 replicates).
GFTFDDYAMH, GISWNFGSIGYADSVK, YGRGGGDFDY: 6.54 (1 of 3 replicates).
YFTFDDYAMH, GISWNSGSIDYADEVK, VGRGGGYFDY: no signal (0 of 3 replicates).
GFTFDDYAMH, GISWMSGSIGPADSVK, RGRGGGYFDY: no signal (0 of 3 replicates).
GFTFDDYAMH, GISFNSGSIGYADSVK, VGEPGGYFDY: no signal (0 of 3 replicates).
GFEFDDYVMH, GISWNSGSIGYADSVK, EGRGGGYFDY: no signal (0 of 3 replicates).
GFTFDDYFMH, GISWNYGSIGYADSVK, VGRGGGYSDY: no signal (0 of 3 replicates).
GFTFDDYAMH, GHSWNSGSMGYADSYK, VGRGGGYFDY: no signal (0 of 3 replicates).
GFTFDDYAMH, DISWNFGSIGYADSVK, VGRGMGYFDY: no signal (0 of 3 replicates).
GFTFDDYHMH, GISWNSGSIGYADSVW, VGRGGGEFDY: no signal (0 of 3 replicates).
GFTFDDYAMH, NISWNSGSIGYADSVK, VGRGKGLFDY: no signal (0 of 3 replicates).
GFTFFDYAMH, GISDNSGSIGYADSVK, VGRGGQYFDY: no signal (0 of 3 replicates).
HETFDDYAMH, GISDNSGSIGYADSVK, VGRGGGYFDY: no signal (0 of 3 replicates).
GFTFDDYAMH, GISWNSGSIGYADSVK, VIRGGGNFDE: no signal (0 of 3 replicates).

The closing 4 entries, repeated:

CDR-H1,CDR-H2,CDR-H3,"mean, log10 nM",detected
GFTFDDYAMH,NISWNSGSIGYADSVK,VGRGKGLFDY,no signal,0 of 3
GFTFFDYAMH,GISDNSGSIGYADSVK,VGRGGQYFDY,no signal,0 of 3
HETFDDYAMH,GISDNSGSIGYADSVK,VGRGGGYFDY,no signal,0 of 3
GFTFDDYAMH,GISWNSGSIGYADSVK,VIRGGGNFDE,no signal,0 of 3